According to patent publication US20040142317A1, “Use of amino acid transporter atbo,+ as a delivery system for drugs and prodrugs” (priority 2003, published 2004):

What follows are compounds tested against T1, mb^0,+ AT rBAT complex (Mus musculus, UniProt Q9QXA6) (assay: cell-based).
T1 sequence (Q9QXA6 1-487): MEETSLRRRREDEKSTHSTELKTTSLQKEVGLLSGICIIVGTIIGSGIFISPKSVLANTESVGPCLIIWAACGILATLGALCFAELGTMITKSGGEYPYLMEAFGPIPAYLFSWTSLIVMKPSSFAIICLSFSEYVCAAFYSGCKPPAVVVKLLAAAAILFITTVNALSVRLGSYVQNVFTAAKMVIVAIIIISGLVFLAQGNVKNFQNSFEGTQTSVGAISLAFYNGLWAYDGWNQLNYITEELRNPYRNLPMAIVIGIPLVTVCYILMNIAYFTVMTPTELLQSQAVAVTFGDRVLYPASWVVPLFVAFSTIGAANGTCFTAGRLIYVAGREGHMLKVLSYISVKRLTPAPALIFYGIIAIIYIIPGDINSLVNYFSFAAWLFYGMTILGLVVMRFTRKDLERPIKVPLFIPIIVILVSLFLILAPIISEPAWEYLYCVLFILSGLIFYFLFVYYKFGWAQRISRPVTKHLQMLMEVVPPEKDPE
With `N[C@@H](Cc1ccccc1)C(=O)O` [Phenylalanine] the Ki was 586 ± 215 µM. Work on `N[C@H](C(=O)O)c1ccccc1` [Phenylglycine, L-phenylglycine] yielded a Ki of 283 ± 84.4 µM. In the case of `C[C@H](N)C(=O)O` [Alanine], the Ki is reported as 804 ± 142 µM.
